Measured values: PubChem BioAssay AID493014 (National Center for Advancing Translational Sciences (NCATS), 2011)
The list shows a part of the results. Some results for these compounds are left out of this collection, so the calls shown say nothing about other tests. Results filed as inconclusive are left out. Active and inactive are the calls of the source. Calls follow the shape of the dose curve; as a rule, active = well fitted inhibition curve with a large enough effect in the signal ratio, with a control signal flat (not every such curve was filed as active); inconclusive = small, poorly fitted or top-dose-only effect, or effect the other way, or a change in a side signal; inactive = flat fitted curve, though single readings scatter; the % refers to the signal ratio.

Test: qHTS Assay to Find Inhibitors of Chronic Active B-Cell Receptor Signaling
Details: ABC-DLBCL IkBa-CBG/CBR reporter, luminescence ratio (green luciferase fused to IkBa over red control in TMD8 lymphoma cells), 4 h; at 46.1 µM (top of the series)
Excerpt: NIH Molecular Libraries Probe Production Network [MLPCN] NIH Chemical Genomics Center [NCGC] MLPCN Grant: 1 R03 DA031086-01A1 PI Name: Dr. R. Eric Davis NCGC Assay Overview: Diffuse large B-cell lymphoma (DLBCL) is the most common category of non-Hodgkin lymphoma, with ~20,000 new cases per year in the United States. DLBCL should be regarded as a collection of different neoplasms. Microarray gene expression analysis has defined two principal types of DLBCL, named for their similarity to normal B cell stages or activation states: a germinal center B-cell (GCB) type, and an activated B-cell (ABC) type. In ABC-DLBCL, a constitutive high-level activity of the NF-kappaB family of transcription factors has been observed (1) and NF-kappaB target genes are more highly expressed in ABC primary tumors than in GCB tumors. Functional studies have shown a constitutive high-level activity of the IkappaB (inhibitor of kappa-B) kinase (IKK) complex. […] Further analysis of DLBCL primary tumors for NF-kappaB target gene expression imply that although CARD11 is required for constitutive IKK activity in all ABC-DLBCL lines, mutations in CARD11 may be the root cause of IKK activation only in lines or tumors with such mutations. In other words, CARD11 mutations may explain NF-kappaB activation in only 10% of ABC-DLBCL cases. […] This process has been termed 'chronic active BCR signaling' (CABS). The goal of this screen is to find small-molecule inhibitors of the CABS pathway found in ABC-DLBCL lines using a cell-based assay that measures IkappaBalpa stability, which has already been extensively validated in the OCI-Ly3 line (PubChem AID:445; REF: 4). […] The assay uses green (CBG68) and red (CBR) emitting beetle luciferases [Chroma-GloTM developed by Promega Corp.] where the green luciferase is fused to IkappaBalpha and the red luciferase is present in its native state. Both luciferase genes are stably present in the TMD8 human ABC DLBCL cell line, but their expression is under the control of tetracycline-inducible promoters. Following the addition of doxycycline to induce expression of the luciferases, the green luminescence in control cultures rises only slowly because the CBG fusion partner IkappaBalpha is targeted by IKK activity for rapid degradation. In contrast, green luminescence rises rapidly in the presence of proteasome inhibitors or IKK inhibitors. The rise in red luminescence of CBR is not affected by proteasome or IKK inhibitors, and serves as normalization for cell number and nonspecific effects. Compounds were screened as a concentration-titration series that ranged from 46 uM to 3 nM.
NCGC Assay Protocol Summary: Cells were seeded in 1536-well plates at 5000 cells/4uL in IMDM medium containing 0.5% FBS, w/o phenol red, 1% penicillin/streptomycin. Then, 23 nL of compounds or DMSO were delivered to each well using a pin tool. One uL 20ng/ml doxycycline was then dispensed into white solid 1536-well plates and the plates were incubated at 37C/5% C02 in a cell incubator for 4 hrs. Then 4 uL luminescent substrate mix (in-house prepared: 150 mM Tris-Cl, pH 7.6, 3 mM MgCl2, 1% Triton X-100, 5 mM DTT, 0.2 mM CoA, 0.15 mM ATP, 5 mM D-luciferin, final concentrations) was added to each well. The plate was incubated at r.t. for 10-15 min. The plates were measured on a ViewLux plate reader for green luminescence (540/20 nm filter) and red luminescence (618/8 nm filter). The green and red luminescent signals were corrected for red and green luminescence filter overlap using previously determined filter calibration constants (determined using the procedure outlined in the Promega Technical Manual; REF 4). The %Activity was determined from the ratio of corrected green/red luminescent values. MG132 were used as control. […] Red luminescent %Activity was normalized to the difference between red luminesence in basal cells (0%Activity) and zero luminescence (-100% Activity). […]
In the case of `CN(C)C1CCCC1OC(=O)C(O)(c1ccccc1)c1ccccc1` (stereo not given), the activity change, negative = inhibition is reported as inactive: 7.89%. In the case of `CN(C)c1ccc(C(=O)NCC2(N(C)C)CCCCC2)cc1`, the activity change, negative = inhibition is reported as inactive: 2.51%. With `Cc1ccccc1C(=O)NCC1(N2CCCCC2)CCCCC1` the activity change, negative = inhibition was inactive: 2.1%. With `O=C(NCC1(N2CCCCC2)CCCCC1)c1cc(F)c(F)cc1Cl` the activity change, negative = inhibition was inactive: -0.797%. In the case of `C=CCN1CCN(CCOC(=O)C(O)(c2ccccc2)c2ccccc2)CC1`, the activity change, negative = inhibition is reported as inactive: 18.3%. With `Cc1cc(C(=O)NCC2(N3CCCCC3)CCCCC2)ccc1[N+](=O)[O-]` the activity change, negative = inhibition was inactive: 11.3%. With `CCN1CCCC(OC(=O)C2(O)c3ccccc3C=Cc3ccccc32)C1` (stereo not given) the activity change, negative = inhibition was inactive: 0.495%. For `COc1ccc(C(=O)NCC2(N(C)C)CCCCC2)cc1`, the activity change, negative = inhibition was inactive: 11%. In the case of `O=C(NCC1(N2CCCCC2)CCCCC1)c1cc([N+](=O)[O-])ccc1Cl`, the activity change, negative = inhibition is reported as inactive: -1.54%. In the case of `CN1[C@@H]2CC[C@H]1CC(OC(=O)C(O)(c1ccccc1)c1ccccc1)C2` (stereo not given in full), the activity change, negative = inhibition is reported as inactive: -10.2%. For `CC(C)N1C(=O)CC2(CCN(CCOC(=O)C(O)(c3ccccc3)c3ccccc3)CC2)C1=O`, the activity change, negative = inhibition was inactive: -1.81%. For `COc1cc(SC)ccc1C(=O)NCC1(N(C)C)CCCCC1`, the activity change, negative = inhibition was inactive: -0.216%. For `CCN(CC)CC(C)C(C)OC(=O)C(O)(c1ccccc1)c1ccccc1` (stereo not given), the activity change, negative = inhibition was inactive: 5.32%. With `Cc1ccc(C(=O)NCC2(N3CCCCC3)CCCCC2)cc1` the activity change, negative = inhibition was inactive: 6.3%. In the case of `COc1ccc(Br)c(C(=O)NCC2(N3CCCCC3)CCCCC2)c1`, the activity change, negative = inhibition is reported as inactive: -12.4%. In the case of `CN(C)c1cccc(C(=O)NCC2(N(C)C)CCCCC2)c1`, the activity change, negative = inhibition is reported as inactive: 3.46%. For `CC(C)Oc1ccc(C(=O)NCC2(N(C)C)CCCCC2)cc1`, the activity change, negative = inhibition was inactive: 3.44%. With `CN(C)C1(CNC(=O)c2ccc(Br)cc2)CCCCC1` the activity change, negative = inhibition was inactive: 2.3%. For `COc1cccc(C(=O)NCC2(N3CCCCC3)CCCCC2)c1`, the activity change, negative = inhibition was inactive: 3.01%. For `O=C(NCC1(N2CCCCC2)CCCCC1)c1cccc(Cl)c1`, the activity change, negative = inhibition was inactive: 1.25%.
